## AlphaSeq binding of Ab-14 heavy chain variants to a spike HR2 peptide

Values reported by Engelhart et al. 2022, doi:10.1038/s41597-022-01779-4 (FLAb copy).

Target peptide (SARS-CoV-2 spike, HR2 region): PDVDLGDISGINAS

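Phage display of a naive human antibody library on the peptide gave the parent. In library AAYL49, one, two or three CDR residues were substituted; doubles and triples were drawn at random. In AlphaSeq, yeast of one mating type display the scFv and yeast of the other type display the target. Mating (16 h, 30 °C) was followed by selection of diploids and sequencing of their barcodes. Read counts were normalised to the haploid input and turned into Kd by a linear fit to BCL2-family pairs of known affinity, for each replicate. There are three technical replicates.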

Parent: Ab-14, a human scFv built as VH, a 15-residue (Gly4Ser)3 linker, VL. Only the CDRs of the heavy chain vary.
VH: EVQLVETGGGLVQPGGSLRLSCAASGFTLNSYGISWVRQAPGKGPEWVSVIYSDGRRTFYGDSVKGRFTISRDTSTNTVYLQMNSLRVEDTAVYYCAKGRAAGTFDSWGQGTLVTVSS
VL: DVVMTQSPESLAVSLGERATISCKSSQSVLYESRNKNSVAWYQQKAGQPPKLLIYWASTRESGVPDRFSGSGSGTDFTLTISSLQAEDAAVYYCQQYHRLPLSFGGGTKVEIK

Positions count from residue 1 of the parent VH; G33D puts D in place of G.
Numbers give log10(Kd / nM), so 0 is 1 nM and 3 is 1 µM. Smaller is tighter.
Averages over replicates are reported, and they cover detected replicates only.
Where no diploid with the target was found in any replicate, the entry reads "no signal": below detection, most likely a poor binder, though not proof of it.
For reference, the parent read 0.65 as the reference entry and 4.11 (one replicate of three) as a member of this library.

changes	log10 Kd (nM), mean	seen in	empty controls
G33D/A101W/A102R	no signal	0 of 3	3 of 9
S53G/S107M	2.03	1 of 3	0 of 9
N30K/S63C/S107G	2.68	3 of 3	1 of 9
T28E/A101R	1.13	3 of 3	0 of 9
V50L/K65S/A102C	no signal	0 of 3	0 of 9
F59Y/G61W/V64R	4.69	1 of 3	0 of 9
N30S/K65C/S107W	no signal	0 of 3	1 of 9
L29R/I34A/T58R	no signal	0 of 3	1 of 9
N30P/S31Y/Y52Q	4.98	3 of 3	5 of 9
D62C/S63C/D106V	2.48	1 of 3	0 of 9
T28G/V50T/A101R	no signal	0 of 3	1 of 9
S35D/F105M	no signal	0 of 3	1 of 9
L29V/N30P/Y52F	4.19	1 of 3	0 of 9
D54N/T58I/G61P	2.89	1 of 3	0 of 9
T58E/G61V/S107Y	1.80	3 of 3	0 of 9
Y60F/S63C/T104Y	no signal	0 of 3	0 of 9
N30L/S31Y/I34V	2.10	3 of 3	0 of 9
F59T/V64R	3.10	1 of 3	0 of 9
T28P/A101G/A102M	1.58	3 of 3	2 of 9
L29C/R56G/S107A	4.82	1 of 3	1 of 9
F27K/T58I/S107N	no signal	0 of 3	2 of 9
I34V/F59W	2.79	3 of 3	1 of 9
S35V/V64C	no signal	0 of 3	0 of 9
T104W/D106H	no signal	0 of 3	1 of 9
G26M/R57C/S63N	4.31	1 of 3	0 of 9
D54V/F59M/A101P	no signal	0 of 3	0 of 9
V64H/A101D/A102F	4.70	1 of 3	2 of 9
G26L/A101H/D106N	2.46	3 of 3	2 of 9
G55S/R57F/Y60F	3.95	2 of 3	3 of 9
I34L/G103F	4.53	2 of 3	2 of 9
S31N/R56E/T104H	no signal	0 of 3	1 of 9
T28M/N30L	3.92	3 of 3	8 of 9

The remaining entries, values ahead:

log10 Kd (nM), mean	seen in	empty controls	changes
4.60	1 of 3	0 of 9	T28I/D54M/T58I
3.43	1 of 3	2 of 9	Y32P/I34A/F59N
3.63	3 of 3	2 of 9	G26V/S31Q/F105P
no signal	0 of 3	0 of 9	S35V/S53Y/A101M
4.14	1 of 3	3 of 9	D54Y/D62S/S63P
5.06	1 of 3	2 of 9	F27K/Y52D/T104A
no signal	0 of 3	0 of 9	D54V/D62E/K65V
no signal	0 of 3	0 of 9	G26L/S35C/S53R
no signal	0 of 3	0 of 9	G26E/D62A/S107G
no signal	0 of 3	1 of 9	L29R/D54V/V64Y
no signal	0 of 3	0 of 9	L29Q/R57A/S63G
no signal	0 of 3	2 of 9	D54P/S63T/R100V
2.29	3 of 3	5 of 9	S31Y/I34V
0.99	3 of 3	6 of 9	R100N/A101N
4.96	1 of 3	0 of 9	L29Y/S35Q/D106Q
4.17	1 of 3	3 of 9	G33P/R56M/A102H
3.91	2 of 3	5 of 9	G33N/R100V/A101T
2.17	3 of 3	3 of 9	R56A/G61V/S63P
no signal	0 of 3	1 of 9	G26A/G33W/R56T
no signal	0 of 3	0 of 9	S31K/G55V/A102M
no signal	0 of 3	0 of 9	V64I/A102V
3.27	1 of 3	0 of 9	N30E/S35M/K65I
no signal	0 of 3	0 of 9	D54H/D62V/V64S
5.03	2 of 3	4 of 9	Y52T/V64D/G99K
4.34	2 of 3	6 of 9	F27N/G61A/G103P
no signal	0 of 3	1 of 9	R57D/A102N/T104H
no signal	0 of 3	0 of 9	F59S/G99A/T104C
4.29	1 of 3	1 of 9	N30C/I34F/K65V
no signal	0 of 3	1 of 9	T28F/V50T/Y52R
3.45	1 of 3	1 of 9	S35L/D54T/R56D
no signal	0 of 3	0 of 9	Y52P/S53W/G61E
3.41	1 of 3	2 of 9	I34A/G55F
3.34	1 of 3	0 of 9	V50G/G55F/T104Q

Excerpt, the final 6 entries:

{"changes": "N30C/I34F/K65V", "log10 Kd (nM), mean": "4.29", "seen in": "1 of 3", "empty controls": "1 of 9"}
{"changes": "T28F/V50T/Y52R", "log10 Kd (nM), mean": "no signal", "seen in": "0 of 3", "empty controls": "1 of 9"}
{"changes": "S35L/D54T/R56D", "log10 Kd (nM), mean": "3.45", "seen in": "1 of 3", "empty controls": "1 of 9"}
{"changes": "Y52P/S53W/G61E", "log10 Kd (nM), mean": "no signal", "seen in": "0 of 3", "empty controls": "0 of 9"}
{"changes": "I34A/G55F", "log10 Kd (nM), mean": "3.41", "seen in": "1 of 3", "empty controls": "2 of 9"}
{"changes": "V50G/G55F/T104Q", "log10 Kd (nM), mean": "3.34", "seen in": "1 of 3", "empty controls": "0 of 9"}

Background: pairings of library AAYL49 with three empty control strains gave a value in 15% of cases (median 4.06, 5th percentile 2.83). Values in that range, when seen in few replicates, are hard to tell from nonspecific mating. Also given: how often the same scFv was detected with the empty control strains.